## AlphaSeq binding of Ab-14 light chain variants to a spike HR2 peptide

The measurements come from Li et al. 2023 (doi:10.1038/s41467-023-39022-2) through the FLAb antibody collection.

Binding partner: SARS-CoV-2 spike HR2 peptide, sequence PDVDLGDISGINAS.

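Phage display of a naive human antibody library on the peptide gave the parent. Designed CDR sequences, proposed from the first random library and measured here. Their group label is 14L_GP_HC (GP: Gaussian process model; HC: hill climbing; a sequence that several methods proposed may carry one label only). The scFvs were displayed on barcoded MATa yeast, the peptide on MATalpha yeast. Binding brings cells together so that they mate, and sequencing counts the barcode pairs among the diploids. Read counts were normalised to the haploid input and turned into Kd by a linear fit to BCL2-family pairs of known affinity, for each replicate. Mating was done six times.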

Parent scFv Ab-14: VH joined to VL by three GGGGS repeats. Changes lie in the light chain CDRs alone.
VH: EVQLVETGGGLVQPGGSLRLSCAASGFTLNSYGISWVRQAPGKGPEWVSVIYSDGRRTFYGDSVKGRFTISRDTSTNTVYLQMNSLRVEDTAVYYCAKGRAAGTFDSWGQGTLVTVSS
VL: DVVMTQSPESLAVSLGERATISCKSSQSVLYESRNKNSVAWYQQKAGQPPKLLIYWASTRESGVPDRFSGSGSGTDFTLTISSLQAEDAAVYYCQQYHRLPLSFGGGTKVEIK

Each variant's VL is given in full.
Numbers give log10(Kd / nM), so 0 is 1 nM and 3 is 1 µM. Smaller is tighter.
An entry "nd" has no value in the source: the pair was not observed among the diploids in that replicate. This suggests poor binding but is not conclusive.
As a blank, each scFv also met three strains without target: over all light chain designs, 4% of these pairings were detected, typically at 2.64 and seldom below 1.59. For each scFv, signals with the empty controls are counted beside the result, with their mean in brackets.

| # | VL | log10 Kd, replicates | signal with controls |
|---|---|---|---|
| 1 | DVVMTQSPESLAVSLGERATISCKFSQWNLYESRTKNSVAWYQQKAGQPPKLLIYNASTRESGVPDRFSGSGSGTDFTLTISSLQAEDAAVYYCQQYHRLPLSFGGGTKVEIK | 0.52 0.33 0.28 0.13 0.35 0.31 | 4/18 (3.02) |
| 2 | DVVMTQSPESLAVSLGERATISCKLYPSYLYESRNKNSVAWYQQKAGQPPKLLIYQASTRESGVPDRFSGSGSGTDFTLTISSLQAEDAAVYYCQQYHRLPLSFGGGTKVEIK | 0.03 -0.17 -0.22 -0.06 -0.06 -0.16 | 1/18 (3.63) |
| 3 | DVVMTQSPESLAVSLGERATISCKSSISYMYESRNKNSVAWYQQKAGQPPKLLIYEASTRESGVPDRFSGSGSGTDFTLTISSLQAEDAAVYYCQQYHRLPLSFGGGTKVEIK | 0.63 0.68 0.53 0.77 0.61 1.11 | 1/18 (2.68) |
| 4 | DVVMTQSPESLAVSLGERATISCKQSQEKGYESRNKNSVAWYQQKAGQPPKLLIYDASTRESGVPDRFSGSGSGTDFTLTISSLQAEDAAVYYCQQYHRLPLSFGGGTKVEIK | nd nd nd nd nd nd | 0/18 |
| 5 | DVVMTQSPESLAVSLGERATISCKSSISVLYESENKNSVAWYQQKAGQPPKLLIYNASQRMSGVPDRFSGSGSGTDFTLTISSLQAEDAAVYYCQQYHRLPLSFGGGTKVEIK | 0.07 -0.24 -0.07 -0.21 -0.21 0.06 | 2/18 (3.39) |
| 6 | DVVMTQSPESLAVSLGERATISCDSSQSVLYESRNKNSVAWYQQKAGQPPKLLIYGASTRESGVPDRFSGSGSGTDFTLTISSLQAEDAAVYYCQQYHRLPLSFGGGTKVEIK | 0.35 -0.10 -0.05 0.10 -0.21 -0.01 | 1/18 (1.52) |
| 7 | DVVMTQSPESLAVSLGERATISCKVSQSVKFESRNKNSVAWYQQKAGQPPKLLIYDASTRERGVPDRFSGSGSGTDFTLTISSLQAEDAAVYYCQQYHRLPLSFGGGTKVEIK | 0.71 0.80 0.72 0.78 0.79 0.71 | 4/18 (3.35) |
| 8 | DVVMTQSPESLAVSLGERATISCHSSPSEPYESRNKNSVAWYQQKAGQPPKLLIYNASTREEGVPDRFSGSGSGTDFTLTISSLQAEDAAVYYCQQYHRLPLSFGGGTKVEIK | -0.22 -0.20 -0.08 -0.28 -0.38 0.37 | 0/18 |
| 9 | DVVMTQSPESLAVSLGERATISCKSLQSWEYESRNKNSVAWYQQKAGQPPKLLIYHASTREQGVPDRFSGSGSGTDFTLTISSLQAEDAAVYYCQQYHRLPLSFGGGTKVEIK | -0.07 -0.04 -0.15 -0.27 -0.36 -0.32 | 2/18 (2.13) |
| 10 | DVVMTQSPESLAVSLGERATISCHQSNSVLYESRNKNSVAWYQQKAGQPPKLLIYNGSTREVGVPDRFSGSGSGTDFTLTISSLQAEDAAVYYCQQYHRLPLSFGGGTKVEIK | -0.31 -0.25 -0.28 -0.35 -0.30 -0.23 | 3/18 (2.98) |
| 11 | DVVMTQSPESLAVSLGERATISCKLYQSALYESRNKNSVAWYQQKAGQPPKLLIYGASTRESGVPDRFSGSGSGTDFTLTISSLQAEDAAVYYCQQYHRLPLSFGGGTKVEIK | -0.14 -0.20 -0.26 -0.49 -0.44 -0.25 | 0/18 |
| 12 | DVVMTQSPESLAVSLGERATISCKYSQSYLYESRNKNSVAWYQQKAGQPPKLLIYGASTRESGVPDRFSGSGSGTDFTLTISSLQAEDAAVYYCQQYHRLPLSFGGGTKVEIK | 0.01 -0.25 -0.15 -0.17 0.04 0.04 | 1/18 (1.74) |
| 13 | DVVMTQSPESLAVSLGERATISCKLSQSWLYESRNKNSVAWYQQKAGQPPKLLIYEGSTRESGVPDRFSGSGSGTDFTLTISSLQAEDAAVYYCQQYHRLPLSFGGGTKVEIK | -0.30 0.06 -0.31 -0.12 0.12 0.05 | 0/18 |
| 14 | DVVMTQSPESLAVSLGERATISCHSSPSQLYESRNKNSVAWYQQKAGQPPKLLIYNASTRESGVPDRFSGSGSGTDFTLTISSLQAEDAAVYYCQQYHRLPLSFGGGTKVEIK | 0.51 0.27 0.31 0.15 0.24 0.38 | 0/18 |
| 15 | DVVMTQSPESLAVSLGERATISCHQSMSVLYESRNKNSVAWYQQKAGQPPKLLIYNGSTREVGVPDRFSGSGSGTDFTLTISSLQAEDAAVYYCQQYHRLPLSFGGGTKVEIK | 0.41 0.37 0.38 0.10 0.55 0.63 | 2/18 (1.82) |
| 16 | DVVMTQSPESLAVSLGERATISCKSSCSYLYESRNKNSVAWYQQKAGQPPKLLIYAASTRESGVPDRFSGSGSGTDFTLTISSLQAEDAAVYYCQQYHRLPLSFGGGTKVEIK | 0.48 0.37 0.52 0.57 0.50 0.53 | 5/18 (2.99) |
| 17 | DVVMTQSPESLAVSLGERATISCHDSPSVLYESRNKNSVAWYQQKAGQPPKLLIYNASTRESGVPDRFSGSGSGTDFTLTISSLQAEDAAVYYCQQYHRLPLSFGGGTKVEIK | 0.06 -0.26 -0.35 -0.52 -0.48 -0.04 | 0/18 |
| 18 | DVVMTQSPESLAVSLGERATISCKSGCGVLQESRNKNSVAWYQQKAGQPPKLLIYGASTRESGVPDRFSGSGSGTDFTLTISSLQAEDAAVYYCQQYHRLPLSFGGGTKVEIK | 0.08 -0.03 0.06 0.02 0.05 0.18 | 3/18 (3.13) |
| 19 | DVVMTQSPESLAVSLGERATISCQFSQSFLYESRNKNSVAWYQQKAGQPPKLLIYGASTRESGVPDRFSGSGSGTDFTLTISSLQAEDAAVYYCQQYHRLPLSFGGGTKVEIK | -0.15 -0.38 -0.45 -0.52 -0.23 -0.37 | 1/18 (2.63) |
| 20 | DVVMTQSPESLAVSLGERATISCKSSQSWLYESRNKNSVAWYQQKAGQPPKLLIYGASQREVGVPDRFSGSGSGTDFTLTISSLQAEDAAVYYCQQYHRLPLSFGGGTKVEIK | -0.18 -0.36 -0.19 -0.36 -0.25 -0.23 | 0/18 |
| 21 | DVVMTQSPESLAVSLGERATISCHQSPSVLYESRNKNSVAWYQQKAGQPPKLLIYNGSTREDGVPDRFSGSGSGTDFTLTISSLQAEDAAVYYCQQYHRLPLSFGGGTKVEIK | -0.11 -0.50 -0.56 -0.67 -0.53 -0.21 | 0/18 |
| 22 | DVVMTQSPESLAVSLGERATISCKLGQGVLYESRNKNSVAWYQQKAGQPPKLLIYGASTRESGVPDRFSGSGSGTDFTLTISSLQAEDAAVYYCQQYHRLPLHFGGGTKVEIK | 0.09 -0.15 -0.09 -0.32 -0.15 -0.05 | 2/18 (2.95) |
| 23 | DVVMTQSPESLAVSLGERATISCKSSQSYMYESRNKNSVAWYQQKAGQPPKLLIYGASTRESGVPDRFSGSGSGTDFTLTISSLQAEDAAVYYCQQYHRLPLSFGGGTKVEIK | 0.61 -0.04 -0.15 -0.09 -0.03 0.37 | 1/18 (0.93) |
| 24 | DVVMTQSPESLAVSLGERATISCKMSQAFLYESRNKNSVAWYQQKAGQPPKLLIYDANTRESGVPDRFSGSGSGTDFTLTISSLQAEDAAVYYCQQYHRLPLSFGGGTKVEIK | 0.84 0.13 0.19 0.02 0.54 0.34 | 0/18 |
| 25 | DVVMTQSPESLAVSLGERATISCKSLWSELYESNNKNSVAWYQQKAGQPPKLLIYHASTREDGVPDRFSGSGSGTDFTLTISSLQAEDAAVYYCQQYHRLPLSFGGGTKVEIK | 0.28 -0.32 -0.04 -0.19 -0.04 0.11 | 1/18 (0.20) |
| 26 | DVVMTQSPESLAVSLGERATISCKLEQSMNYESRNKNSVAWYQQKAGQPPKLLIYNASTRESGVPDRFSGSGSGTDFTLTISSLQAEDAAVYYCQQYHRLPLSFGGGTKVEIK | -0.11 -0.19 -0.24 -0.40 -0.28 -0.11 | 1/18 (1.74) |

The last 2 entries again:

| VL | log10 Kd, replicates | signal with controls |
|---|---|---|
| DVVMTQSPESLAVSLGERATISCKSLWSELYESNNKNSVAWYQQKAGQPPKLLIYHASTREDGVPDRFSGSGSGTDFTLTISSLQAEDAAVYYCQQYHRLPLSFGGGTKVEIK | 0.28 -0.32 -0.04 -0.19 -0.04 0.11 | 1/18 (0.20) |
| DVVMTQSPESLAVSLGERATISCKLEQSMNYESRNKNSVAWYQQKAGQPPKLLIYNASTRESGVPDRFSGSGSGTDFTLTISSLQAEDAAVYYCQQYHRLPLSFGGGTKVEIK | -0.11 -0.19 -0.24 -0.40 -0.28 -0.11 | 1/18 (1.74) |

The parent sequence was in this pool as ten entries: three were never detected, three once, and four in most replicates, with averages from 0.34 to 2.37.
The range of this assay differs from that of the first round, and the authors advise against merging the two.
In the paper, a design with two or fewer of six values counts as a poor binder.